Source: patent US5707798A, “Identification of ligands by selective amplification of cells transfected with receptors” (priority 1994, dated 1998)

The chains behind the UniProt entries cited, without tags or fusion partners. Residues count along the entry.
UniProt P21450, 21-427: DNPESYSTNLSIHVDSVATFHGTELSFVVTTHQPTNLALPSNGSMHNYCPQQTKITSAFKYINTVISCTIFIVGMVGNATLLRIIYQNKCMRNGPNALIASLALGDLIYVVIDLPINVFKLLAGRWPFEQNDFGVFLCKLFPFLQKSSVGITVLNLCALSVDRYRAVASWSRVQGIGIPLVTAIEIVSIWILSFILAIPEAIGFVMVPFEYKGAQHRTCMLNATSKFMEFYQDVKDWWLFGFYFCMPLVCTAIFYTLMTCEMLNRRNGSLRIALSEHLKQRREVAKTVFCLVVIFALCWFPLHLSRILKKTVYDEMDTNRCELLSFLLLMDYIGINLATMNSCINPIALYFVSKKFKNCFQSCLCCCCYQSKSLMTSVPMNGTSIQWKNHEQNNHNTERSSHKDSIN

How the values were obtained:
[1] = biological target: T1, Endothelin ETA receptor (Bos taurus, UniProt P21450); type: cell-based; details: Table 2, read-out: Ligand EC50
T1 construct: expressed in transfected cells; host or cells: NIH 3T3 (mouse fibroblasts)

[2] = biological target: T2, Endothelin ETB receptor (Rattus norvegicus, UniProt P21451); type: cell-based; details: Table 2, read-out: Ligand EC50
T2 construct: expressed in transfected cells; host or cells: NIH 3T3 (mouse fibroblasts)
T2 sequence (P21451 27-442): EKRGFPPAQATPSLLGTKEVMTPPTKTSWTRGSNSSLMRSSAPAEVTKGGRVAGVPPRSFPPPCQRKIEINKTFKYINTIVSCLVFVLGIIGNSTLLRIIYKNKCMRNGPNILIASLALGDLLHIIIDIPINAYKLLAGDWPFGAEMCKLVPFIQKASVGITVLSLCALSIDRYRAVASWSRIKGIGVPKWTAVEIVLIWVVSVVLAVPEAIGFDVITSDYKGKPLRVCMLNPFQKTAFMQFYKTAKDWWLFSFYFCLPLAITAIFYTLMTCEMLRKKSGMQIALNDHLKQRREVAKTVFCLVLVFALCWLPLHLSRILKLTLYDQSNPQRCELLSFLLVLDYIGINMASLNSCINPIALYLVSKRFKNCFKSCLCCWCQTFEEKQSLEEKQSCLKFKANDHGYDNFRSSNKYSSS

[3] = test system: certain muscarinic receptors; details: cited from earlier work

Compound	EC50 [1] [nM]	EC50 [2] [nM]	growth stimulation [3]
ET-1: endothelin receptor ligand	0.079 ± 0.048	0.24 ± 0.2	–
C[N+](C)(C)CCOC(N)=O [carbachol]	–	–	stimulates
